Earlier results as cited in EP0721734A1, “PESTICIDE COMPOSITION” (NIPPON SODA CO., LTD., priority 1993, dated 1995).

SMILES | water solubility
CNC(=O)Oc1cccc2c1OC(C)(C)C2 [Carbofran] | 700 ppm
CCC1COC(Cn2cncn2)(c2ccc(Cl)cc2Cl)O1 (centres unmarked) [Ethaconasole] | 80 ppm
